Source: patent publication US6376490B1, “Quinoxalinediones” (Pfizer Inc, priority 1997, dated 2002)

Target: glycine site of the NMDA receptor (Rattus norvegicus, UniProt P35439)
Assay: Displacement of [3H]-L-689,560 from rat brain membranes (NMDA glycine site binding)
Settings: read-out: IC50 (nM), binding affinity for the glycine site of the NMDA receptor, [3H]-L-689,560 method, tris-acetate buffer pH 7.4, 90 minutes, tested form: 0.25 1,4-dioxane solvate

**Q.** For Cn1nnnc1-c1c(Cl)c(Cl)cc2[nH]c(=O)c(=O)[nH]c12, which IC50 is on record?
**A.** 3 nM
